{"source": "patent US11015179B2", "about": "“Peptide having anti-viral effect and composition containing same” (priority 2015, dated 2021)", "key": {"[1]": {"system": "HNF4α", "assay": "HNF4α expression by western blotting in W4P-transfected HepG2 cell line", "type": "cell-based, human", "details": "HepG2, 10 μM, 48 hours", "experimental": "It is known that the hepatocyte nuclear factor 4α binds to HBV enhancer I and thus plays a critical role in HBV synthesis. Therefore, 48 hours after the whole HBV W4P genome was injected into a HepG2 cell line and treated with 10 μM PEP1, proteins were extracted from the pellets, and subjected to western blotting. As a control group, a mock vector was injected and compared."}, "[2]": {"system": "p38, JNK and ERK", "assay": "Immunoblotting of MAPK signaling factors in JFH-1 cells", "type": "cell-based, human", "details": "2 hours"}, "[3]": {"system": "HSP 90, SOD, ERK, JAK2", "assay": "Liver protein expression (western blotting) in whole HBV W4P genome-transgenic mice", "type": "in vivo", "experimental": "To observe a change in protein expression affecting the antiviral effect by the PEP1 peptide, transgenic mice prepared by injecting the whole HBV W4P variant genome were used. The PEP1 peptide was injected into the caudal vein of the mouse at a concentration of 50 μg/kg twice a week. As a control group, 500 μg/kg of 3TC was injected like the PEP1 peptide. On week 8, the whole blood was collected from the mouse, and proteins were extracted from the liver of the mouse and subjected to western blotting to observe expression of the proteins."}, "[4]": {"system": "HBV", "assay": "HBsAg ELISA in whole HBV W4P genome-transfected Huh7 cell line", "type": "cell-based, hepatitis B virus", "details": "Huh7, 10 μM, 48 hours", "experimental": "To observe virion production of entire HBV containing W4P by PEP1, 2×10^6 Huh7 cells were seeded into a 100 mm dish, and normal total HVC and HBV containing W4P were co-transiently transfected with a pCMV-β-gal vector including β-galactosidase, and incubated for 3 days. While changing the medium every 24 hours, the supernatant (sup) was collected. To analyze the supernatant, ELISA was performed according to experimental instructions using a generalized Bioelisa HBsAg color ELISA kit (BIOKIT S.A., Spain) and an HBeAg ELISA kit (BIOKIT S.A., Spain) that can detect a Hepatitis B surface antigen (HBsAg) and a Hepatitis B envelope antigen (HBeAg). 100 μl of each of the collected supernatants was added to each well, and reacted at 37° C. for 1 hour. 300 μl of a washing solution to each well for washing three times. 300 μl of a washing solution was added to the diluted conjugate solution for washing three times. 20 μl/ml of TMB was added to a substrate solution, and then 100 μl of the mixture was added to each well of a 96-well plate to allow a reaction for 30 minutes while light was blocked at room temperature. 100 μl of a stop solution was added to stop the reaction. The absorbance was read using an ELISA reader (Beckman, USA) at 450 nm. […]"}, "[5]": {"system": "Huh7.5 cells", "assay": "Flow cytometry of FITC-conjugated PEP1 penetration into Huh7.5 cells", "type": "cell-based, human", "experimental": "To assess the intracellular penetration of fluorescein isothiocyanate (FITC)-conjugated PEP1, the cell lines were treated with various materials, and further treated with the FITC-conjugated PEP1 for two hours, followed by FACS analysis. For LRP1 knockdown, 18 hours after siRNA was injected, the cells were washed with PBS and treated with FITC-conjugated PEP1 for two hours, peptides attached to the cells were completely removed by treatment with trypsin/EDTA (Invitrogen), and the cells were washed with an FACS buffer solution (PBS, 0.5% BSA), followed by analysis using BD FACS Fortessa (BD Biosciences, San Diego, Calif., USA). Data analysis was carried out using FlowJo software (version 9.7.7, TreeStar, Ashland, Oreg., USA).\nIn addition, to check if the oxidative stress has an influence on penetration of PEP1, PDTC was added to the JFH-1 cells, and H2O2 was added to Huh7.5 cells, thereby producing various oxidative levels. These treating conditions brought about different influences on eHSP secretion depending on ROS levels (FIGS. 8 and 9). In accordance with the assumption by the inventors, PEP1 penetration into the JFH-1 cells was decreased in the presence of PDTC, and PEP1 penetration was increased in the Huh7.5 cells in the presence of H2O2 (FIGS. 13 and 14)."}, "[6]": {"system": "HCV", "assay": "Quantitative PCR of HCV NS2 transcript in JFH-1 cells", "type": "cell-based, Hepatitis C virus (HCV2a JFH-1)"}, "[7]": {"system": "IL-6", "assay": "IL-6 ELISA in culture supernatant of W4P-transfected Huh7 cell line", "type": "cell-based, human", "details": "Huh7, 10 μM, 48 hours"}, "[8]": {"details": "week 8, PEP1 50 μg/kg, 3TC 500 μg/kg"}}}
{"compound": "CC[C@H](C)[C@H](NC(=O)[C@H](Cc1ccccc1)NC(=O)[C@H](CCCNC(=N)N)NC(=O)[C@H](CC(C)C)NC(=O)[C@H](CCCNC(=N)N)NC(=O)[C@H](CO)NC(=O)[C@@H](NC(=O)[C@H](CC(C)C)NC(=O)[C@H](CC(C)C)NC(=O)[C@H](C)NC(=O)[C@@H]1CCCN1C(=O)[C@H](CCCNC(=N)N)NC(=O)[C@H](C)NC(=O)[C@@H](N)CCC(=O)O)[C@@H](C)O)C(=O)N1CCC[C@H]1C(=O)N[C@@H](CCCCN)C(=O)O", "note": "[PEP1, EARPALLTSRLRFIPK]", "values": [{"measurement": "HNF4α expression", "setting": "[1]", "result": "more effectively reduced by the PEP1 peptide than 3TC"}, {"measurement": "Phosphorylation of p38 and JNK", "setting": "[2]", "result": "decreased"}, {"measurement": "ERK activity", "setting": "[2]; vitamin E 10 μM", "result": "increased"}, {"measurement": "Expression of HSP 90 and SOD in liver", "setting": "[3]; week 8, PEP1 50 μg/kg twice a week", "result": "no effect"}, {"measurement": "JAK2 phosphorylation in liver", "setting": "[3]; [8]", "result": "regulated"}, {"measurement": "Protein phosphorylation of ERK in liver", "setting": "[3]; [8]", "result": "inhibited"}, {"measurement": "Extracellular HBsAg level", "setting": "[4]", "result": "no difference in extracellular inhibition"}, {"measurement": "Intracellular HBsAg level", "setting": "[4]", "result": "intracellular inhibition"}, {"measurement": "Penetration into Huh7.5 cells in the presence of H2O2", "setting": "[5]", "result": "increased"}, {"measurement": "NS2 transcription (HCV RNA replication)", "setting": "[6]; 48 hours, vs vehicle, PEP1 until 10 μM, NAC 20 mM, PDTC 100 μM, vitamin E 10 μM", "result": "concentration-dependently inhibits the NS2 transcription"}, {"measurement": "HCV RNA replication with LRP1 knockdown", "setting": "[6]; LRP1 siRNA, PEP1 10 μM", "result": "not decreased"}, {"measurement": "Inhibition of HCV RNA (NS2 transcript) by PEP1 with anti-HSP70 or control (isotype) antibodies", "setting": "[6]; PEP1 10 μM, anti-HSP70 antibodies or isotype", "result": "inhibited by PEP1 regardless of antibodies"}, {"measurement": "Inhibition of HCV RNA (NS2 transcript) by PEP1 with anti-HSP90 antibodies", "setting": "[6]; PEP1 10 μM, anti-HSP90 antibodies", "result": "not inhibited"}, {"measurement": "IL-6 level in culture supernatant", "setting": "[7]", "result": "no IL-6 inhibitory effect"}]}
